Where “and” joins values, the source holds several entries; their conditions need not be identical. Equal values may be shown once. The list shows a part of the results, in another mix than the full data. Records with an inconclusive call do not appear. Calls of active or inactive are those of the source. Calls come from the whole dose curve; as a rule, active = well fitted cell-killing curve with a large enough effect in the repeat runs; inconclusive = weak or mixed curves; inactive = flat fitted curve, though single readings scatter.
Assay: qHTS assay to identify small molecule antagonists of the TGF-beta/Smad signaling pathway - cell viability counter screen (AID 1346824); note: nearly all actives have a fitted effect of over 50% in size
Conditions: SBE-bla HEK293T viability, CellTiter-Glo luminescence; at 35.3 µM (top of the series)
Excerpt: U.S. Tox21 Program National Center for Advancing Translational Sciences [NCATS] NIH Chemical Genomics Center [NCGC] U.S. Environmental Protection Agency [EPA] National Institutes of Environmental Health Sciences [NIEHS] National Toxicology Program [NTP] U.S. Food and Drug Administration [FDA] Tox21 Assay Overview: Transforming growth factor beta (TGF-beta) superfamily consists of a large number of structurally related dimeric proteins that act as hormones or local mediators in regulating a wide range of biological functions. This superfamily includes TGF-betas themselves, the bone morphogenetic proteins (BMPs) and the activins. These ligands induce oligomerization of serine/threonine receptor kinases and phosphorylate the cytoplasmic signaling molecules of Smad protein family. CellSensor SBE-bla HEK 293T cell line (Life Technologies, Carlsbad, CA), responsive to TGF-beta was used to screen Tox21 10K compound library for identification of agonists/antagonists of the Smad signaling pathway. This cell line contains a beta-lactamase reporter gene under control of the Smad binding element (SBE) stably integrated into HEK 293T cells. Also cytotoxicity of the compounds was tested in parallel by measuring the cell viability using CellTiter-Glo assay system in the same wells.
Tox21 Assay Protocol Summary: SBE-bla HEK 293T cells were dispensed at 4,000/well in 5 uL of assay medium into black wall/clear-bottom 1536-well plates using a Multidrop Combi (ThermoFisher Scientific, Waltham, MA) dispenser. After the assay plates were incubated at 37 C and 5% CO2 for an overnight, 23 nL of compounds dissolved in DMSO, positive controls or DMSO only was transferred to the assay plate by a Pintool station (Kalypsys, San Diego, CA). Compound transfer was followed by the addition of 1 uL of 0.25 ng/mL TGF-beta1 or assay buffer using two separate tips of Flying Reagent Dispenser (FRD, Aurora Discovery, San Diego, CA). The assay plates were incubated at 37 C and 5% CO2 for 5 hr. One uL of LiveBLAzer B/G FRET substrate (Life Technologies) was added using a Flying Reagent Dispenser (FRD, Aurora Discovery, San Diego, CA) and the plates were incubated at room temperature for 2 hr. Fluorescence intensity (405 nm excitation, 460 nm and 530 nm emissions) was measured using an Envision plate reader (PerkinElmer, Shelton, CT). For cytotoxicity read, 4 uL of CellTiter-Glo reagent (Promega Corporation, Madison, WI) was added to each well of the assay plates using FRD. After 30 min incubation at room temperature, the luminescence intensity was measured using ViewLux plate reader (PerkinElmer).
In the case of NC(=O)Nc1ccc([As](=O)(O)O)cc1, the viability change, negative = cytotoxic is reported as inactive: -7.33%.

Same assay, conditions: SBE-bla HEK293T viability, CellTiter-Glo luminescence; at 76.8 µM (top of the series)
With NC(=O)Nc1ccc([As](=O)(O)O)cc1 the viability change, negative = cytotoxic was inactive: -21.7%.

Same assay, conditions: SBE-bla HEK293T viability, CellTiter-Glo luminescence; at 76.8 µM (top of the series) unless noted
In the case of CN(C(=O)Cc1ccc(Cl)c(Cl)c1)[C@H]1CC[C@@]2(CCCO2)C[C@@H]1N1CCCC1, the viability change, negative = cytotoxic is reported as inactive: 0.139% [at 35.3 µM]. For CCNC(C)Cc1ccc2c(c1)OCO2 (configuration not stated), the viability change, negative = cytotoxic was inactive: 6.74%. With O=C(Cl)OCCOC(=O)Cl the viability change, negative = cytotoxic was inactive: -1.37%. In the case of COP(=S)(Cl)OC, the viability change, negative = cytotoxic is reported as inactive: 2.56%. With O=[N+]([O-])c1ccc(S(=O)(=O)O)c([N+](=O)[O-])c1 the viability change, negative = cytotoxic was inactive: -0.321%. In the case of COC(=O)Cl, the viability change, negative = cytotoxic is reported as inactive: 8.46%. With CCC(C)(OOC(C)(C)C)OOC(C)(C)C the viability change, negative = cytotoxic was inactive: -0.612% [at 15.8 µM]. In the case of ClP(Cl)c1ccccc1, the viability change, negative = cytotoxic is reported as inactive: 4.62%. In the case of CN(C(=O)Cc1cccc2occc12)[C@H]1CC[C@@]2(CCCO2)C[C@@H]1N1CCCC1, the viability change, negative = cytotoxic is reported as inactive: 0.423%. With Cc1cc([N+](=O)[O-])c(O)c([N+](=O)[O-])c1 the viability change, negative = cytotoxic was inactive: 5.54%. With CCOP(=S)(CC)Sc1ccccc1 (configuration not stated) the viability change, negative = cytotoxic was inactive: 14.2%. With Cc1cc([N+](=O)[O-])cc([N+](=O)[O-])c1O the viability change, negative = cytotoxic was inactive: -16.5%. For O=P(Cl)(Oc1ccccc1)Oc1ccccc1, the viability change, negative = cytotoxic was inactive: 8.98%. In the case of CN(C(=O)Cc1ccccc1)[C@H]1CC[C@@]2(CCCO2)C[C@@H]1N1CCCC1, the viability change, negative = cytotoxic is reported as inactive: 9.29% [at 35.3 µM]. With O=P(Cl)(Cl)c1ccccc1 the viability change, negative = cytotoxic was inactive: 5.03%. In the case of O=[N+]([O-])c1ccc([N+](=O)[O-])cc1, the viability change, negative = cytotoxic is reported as inactive: 2.77%. In the case of O=[P+](Oc1ccccc1)Oc1ccccc1, the viability change, negative = cytotoxic is reported as inactive: -1.47%. With CC(C)OP(=S)(OC(C)C)SCCNS(=O)(=O)c1ccccc1 the viability change, negative = cytotoxic was inactive: -0.552%. For CCOC(=O)Cl, the viability change, negative = cytotoxic was inactive: 0.155%. With CCCCO[P+](=O)OCCCC the viability change, negative = cytotoxic was inactive: -14.9% and inactive: -7.71%. In the case of CCCCC(CC)CO[P+](=O)OCC(CC)CCCC (configuration not stated), the viability change, negative = cytotoxic is reported as inactive: -10%. For CN(N=O)C(=N)N[N+](=O)[O-], the viability change, negative = cytotoxic was inactive: 7.75%. With O=[p+]1oc2ccccc2c2ccccc21 (configuration not stated) the viability change, negative = cytotoxic was inactive: 6.25%. In the case of O=C(Cl)Oc1ccccc1, the viability change, negative = cytotoxic is reported as inactive: 0.214%. For CC(C)CCCCCCCOP(OCCCCCCCC(C)C)Oc1ccccc1, the viability change, negative = cytotoxic was inactive: -13.9%.

From PubChem BioAssay (Tox21)
% is set by controls: 0 for no effect and ±100 for the full control effect.
